Test results published in patent publication US20260041744A1, “Methods for Treating Pompe Disease” (Amicus Therapeutics, Inc., priority 2022, published 2026).
Several values for one entry are separate records, joined by “and”; a condition that tells them apart may be missing. Equal entries are not always repeated.

Legend:
[1] = target: cation-independent mannose-6-phosphate receptor (CIMPR), purified (affinity column, coated plates, overlay probe); test: CIMPR affinity column, same conditions as for MYOZYME and LUMIZYME
[2] = target: cation-independent mannose-6-phosphate receptor (CIMPR), purified (affinity column, coated plates, overlay probe); test: CIMPR affinity chromatography; fractions assayed for GAA activity (F460); flow-through peak before the M6P addition, bracketed 'rhGAA lacks M6P; cannot be targeted to lysososmes'
[3] = target: cellular receptors (CIMPR) on normal and Pompe patient fibroblasts (human) (UniProt P11717); test: cell-based or functional assay
[4] = target: cellular receptors (CIMPR) on normal and Pompe patient fibroblasts (human) (UniProt P11717)
[5] = target: cation-independent mannose-6-phosphate receptor (CIMPR), purified (affinity column, coated plates, overlay probe); test: CIMPR affinity chromatography; fractions assayed for GAA activity (F460); bound material eluted with an M6P gradient up to about 1 mM, then a step to about 5 mM; peak bracketed 'rhGAA contains M6P; targeted to lysososmes'
[6] = target: cation-independent mannose-6-phosphate receptor (CIMPR), purified (affinity column, coated plates, overlay probe); test: M6P receptor (CIMPR) plate binding assays
[7] = target: cation-independent mannose-6-phosphate receptor (CIMPR), purified (affinity column, coated plates, overlay probe); test: CIMPR affinity chromatography of purified ATB200 from different production batches
[8] = target: cellular receptors (CIMPR) on normal and Pompe patient fibroblasts (human) (UniProt P11717); remark: listed apart in the source
[9] = target: cation-independent mannose-6-phosphate receptor (CIMPR), purified (affinity column, coated plates, overlay probe); test: CIMPR affinity column, flow-through against M6P-eluted fraction, measured by GAA activity

Row | Substance | percent of rhGAA bound [1] [%] | fraction of total GAA activity not bound to the CIMPR column (flow-through) [2] | concentration that saturates cellular receptors (uptake into fibroblasts) [3] [nM] | EC50 (read off the curve); internalized GAA activity in skeletal muscle myoblasts [4] [nM] | fraction of total GAA activity bound to the CIMPR column and eluted with M6P [5] | Kd [6] [nM] | CIMPR receptor binding (percent of rhGAA bound) [7] [%] | Kuptake, Pompe fibroblast cell line [8] [nM] | Kuptake, normal fibroblast cell line [8] [nM] | percent of rhGAA bound (M6P-containing fraction) [9] [%] | percent of rhGAA that did not bind [9] [%] | uptake efficiency constant (Kuptake) [3] [nM]
1 | ATB200 rhGAA (recombinant human acid α-glucosidase produced from CHO cell line GA-ATB200) (from UniProt P10253 57-952) (enzyme) | > 70 | 30% and 8% | 20 | 10 | 70% and 92% | 2 to 4 | > 70 | 3 | 2 |  |  | 
2 | MYOZYME® (alglucosidase alfa, conventional rhGAA product) (from UniProt P10253 57-952) (enzyme) |  |  |  |  |  |  |  |  |  | 27 | 73 | 
3 | LUMIZYME® (alglucosidase alfa, conventional rhGAA product) (from UniProt P10253 57-952) (enzyme) |  |  | 250 |  |  |  |  | 57 | 56 | 22 | 78 | 56
